Like-named read-outs stand apart in the source and are kept apart here.
Tests used:
[1] = PK study in mice: antiviral activity of pooled serum after i.v. injection; assay type: in vivo; settings: 30 μg/kg i.v.
Description: Antiviral activity of pooled serum was tested in the antiviral assay. Serum was collected from two mice (female BALB/c mice, aged 8 weeks) at each time, which were sacrificed 2 h, 4 h, 12 h, and 24 h post i.v.-injection of 30 μg/kg (based on the protein content) of IFN-alpha or the IFN-alpha-HES conjugate.
The serum samples were thawed and thoroughly homogenized by vortexing (and diluted). Serial two-fold dilutions were prepared in cell culture medium. A vial of Intron A (diluted) was thawed and thoroughly homogenized by vortexing. Serial two-fold dilutions were prepared in cell culture medium.
The EC50-dilutions in the CPE-assay were determined from dose response curves of a 1:2 dilution series as described in example 9.
The half life of the materials was determined compared to unmodified starting material and Pegasys. The half life was calculated from a semi-logarithmic plot of the EC50-dilution vs. time post injection.

[2] = rabbit, in vivo, iv
[3] = test system: VSV in MDBK cells; settings: standard's stated activity; cited from earlier work
[4] = test system: VSV in MDBK cells; assay type: cell-based

IFN-alpha-HES (example 8.3.2, entry D of the table): IFN-alpha conjugated with aldehydo-HES of example 8.2.8 (AldehydoHES30/0.7); sample of the rabbit PK study
half-life (semi-logarithmic plot of the EC50-dilution vs. time post injection) [1]: approx 5 h | half-life compared to the starting material [2]: distinct prolongation of half-life | half-life t½, non compartment model [2]: 42.7 h | half-life t½, one compartment model [2]: 7.7 h

PegIntron: commercially available PEGylated IFN-alpha (SP) [reference compound]
half-life (semi-logarithmic plot of the EC50-dilution vs. time post injection) [1]: approx. 3.6 h

NIH-standard: NIH-standard rhIFN-alpha 2a (NIAID, NIH, Gxa01-901-535)
specific activity [3]: 9,000 IU/ml

IFN-alpha-HES 30/0.8: IFN-alpha conjugated with aldehydoHES of example 8.2.16 (MW 29.3 kD, DS 0.86)
half-life (semi-logarithmic plot of the EC50-dilution vs. time post injection) [1]: approx. 6.5 h

IFN-alpha-HES 100/0.7: IFN-alpha conjugated with aldehydoHES of example 8.2.18 (MW 97.9 kD, DS 0.76)
half-life (semi-logarithmic plot of the EC50-dilution vs. time post injection) [1]: ~6.8 h

IFN-alpha-HES (example 8.3.4): IFN-alpha conjugated with aldehydo-HES of example 8.2.14 (MW 56.8 kD, DS 0.76), 16 mg scale
antiviral activity compared to Intron A ([4]; from CPE50 concentration): more than 25% | half-life (semi-logarithmic plot of the EC50-dilution vs. time post injection) [1]: approx. 7 h

Intron A: IFN-alpha 2b, Schering-Plough; internal lab reference [reference compound]
specific activity ([4]; calibrated against NIH-standard rhIFN-alpha 2a): 8,487,000 IU/ml

IFN-alpha-HES (example 8.3.2, entry B of the table): IFN-alpha conjugated with aldehydo-HES of example 8.2.4 (AldehydoHES10/0.7)
half-life (semi-logarithmic plot of the EC50-dilution vs. time post injection) [1]: approx. 3 h

mock incubated IFN-alpha-HES: reaction control: IFN-alpha incubated with non-oxidized HES10/0.4 (Mw 7.6 kD; DS 0.41)
in vitro bioactivity compared to unmodified starting material ([4]; mock incubation (reaction control)): did not affect the in vitro bioactivity

From patent US8287850B2, “Conjugates of hydroxyalkyl starch and a protein, prepared by reductive amination” (Fresenius Kabi Deutschland GmbH, priority 2004, dated 2012)
